Data as given in PubChem BioAssay AID493012 (Sanford-Burnham Center for Chemical Genomics, 2011).
Only a part is listed here, and it is no random draw. Some structures show a salt or complex split into parts, the way the source records it. Active and inactive are the calls of the source.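 Rule for the calls: active = inhibition of at least 40% at 20 µM, with no more than 30% in the related APOBEC3A deaminase screen; inactive = the rest.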

Sequences of proteins named here, by UniProt entry; tags and fusion partners are left off.
UniProt Q9HC16, whole entry: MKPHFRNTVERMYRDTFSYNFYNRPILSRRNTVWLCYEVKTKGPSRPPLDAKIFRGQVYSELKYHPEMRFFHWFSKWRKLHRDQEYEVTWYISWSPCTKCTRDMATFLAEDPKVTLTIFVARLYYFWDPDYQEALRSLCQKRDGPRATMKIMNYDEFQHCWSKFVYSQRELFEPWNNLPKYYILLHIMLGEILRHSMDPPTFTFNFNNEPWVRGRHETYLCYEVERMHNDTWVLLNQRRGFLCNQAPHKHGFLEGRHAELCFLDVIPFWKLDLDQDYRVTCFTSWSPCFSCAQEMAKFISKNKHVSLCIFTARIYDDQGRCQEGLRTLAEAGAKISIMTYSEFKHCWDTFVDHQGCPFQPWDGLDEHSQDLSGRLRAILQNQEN

These compounds were tested against DNA dC->dU-editing enzyme APOBEC-3G (Homo sapiens) (UniProt Q9HC16) (assay: APOBEC3G DNA deaminase inhibitors, primary screen, biochemical, fluorescence, single-stranded DNA substrate, uHTS (AID 493012;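 note: plate controls were DMSO wells with A3G for no effect and wells lacking A3G enzyme for full effect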)). Settings: recombinant A3G, ssDNA deamination FAM/TAMRA fluorescence; at 20 µM; active compounds read high.

SMILES	inhibition
COc1ccccc1OP(C)(=O)Nc1ccccc1 (configuration not stated)	inactive: -12.7%
CP(=O)(Nc1ccccc1Br)Oc1ccccc1 (configuration not stated)	inactive: -4.83%
CP(=S)(Nn1cnnc1)Oc1ccccc1 (configuration not stated)	inactive: -7.73%
CP(=O)(Nc1ccccn1)Oc1ccc(Cl)cc1 (configuration not stated)	inactive: 6.18%
CCOP(C)(=S)SCC(=O)NC(C)C(=O)O (configuration not stated)	inactive: -5.99%
CCOC(=O)c1ccc(NP(C)(=O)Oc2ccc(OC)cc2)cc1 (configuration not stated)	inactive: -6.07%
O=[N+]([O-])c1cc([N+](=O)[O-])c(O)c([N+](=O)[O-])c1.c1ccc(Oc2ccncc2)cc1	inactive: -0.881%
Cc1cc(C)cc(OP(C)(=O)Nc2ccc(SC(F)(F)F)cc2)c1 (configuration not stated)	inactive: -2.53%
CP(=O)(NC(=O)Nc1ccccc1)Oc1ccccc1 (configuration not stated)	inactive: -7.5%
CCc1ccc(OP(C)(=O)N2CCN(c3ccc([N+](=O)[O-])cc3)CC2)cc1 (configuration not stated)	inactive: -6.89%
CP(=O)(Oc1ccccc1)OC(c1ccccc1)C(F)(F)F (configuration not stated)	inactive: -2.2%
Cc1cccc(C)c1OP(C)(=O)Nc1ccc(SC(F)(F)F)cc1 (configuration not stated)	inactive: -6.74%
CP(=O)(Nc1ccc(SC(F)(F)F)cc1)Oc1ccc(Cl)cc1 (configuration not stated)	inactive: -3.83%
CCN(CC)CCCOC(=O)C(O)(c1ccccc1)c1ccccc1	inactive: 3.7%
COc1ccc(OP(C)(=O)Nc2cccc(F)c2)cc1 (configuration not stated)	inactive: -0.41%
COc1ccccc1OP(C)(=O)Nc1cc(Cl)ccc1C (configuration not stated)	inactive: -6.8%
Cc1cc(C)cc(OP(C)(N)=O)c1 (configuration not stated)	inactive: -11.1%
CCOC(=O)c1ccc(NP(C)(=O)Oc2ccccc2)cc1 (configuration not stated)	inactive: -2.25%
Cc1ccc(NP(C)(=O)Oc2ccccc2)c(C)c1 (configuration not stated)	inactive: -1.55%
COc1ccccc1OP(C)(=O)Nc1ccc(C)cc1 (configuration not stated)	inactive: -1.7%
Cc1cccc(C)c1OP(C)(N)=O (configuration not stated)	inactive: -4.27%
CC(C)(C)c1ccc(OP(C)(=O)Nc2ccc(SC(F)(F)F)cc2)cc1 (configuration not stated)	inactive: -6.23%

SMILES	inhibition
O=[N+]([O-])c1cc([N+](=O)[O-])c(Nc2cccnc2)c([N+](=O)[O-])c1	inactive: -0.877%
CC1=NCCc2c1[nH]c1ccccc21.O=[N+]([O-])c1cc([N+](=O)[O-])c(O)c([N+](=O)[O-])c1	inactive: -4.64%
O=C(O)c1cccc(Nc2c([N+](=O)[O-])cc([N+](=O)[O-])cc2[N+](=O)[O-])c1	inactive: -0.495%
Cc1cc(C)cc(OP(C)(=O)Nc2ccccn2)c1 (configuration not stated)	inactive: -5.62%
CP(=O)(Nc1cccc(Br)c1)Oc1ccccc1 (configuration not stated)	inactive: -8.7%
Cc1ccc(C)c(NP(C)(=O)Oc2ccccc2)c1 (configuration not stated)	inactive: 2.47%
Cc1cc(C)cc(OP(C)(=O)Nc2ccc(C)cc2C)c1 (configuration not stated)	inactive: -5.39%
CCOC(=O)c1ccc(NP(C)(=O)Oc2cc(C)cc(C)c2)cc1 (configuration not stated)	inactive: 0.714%
COc1ccccc1OP(C)(=O)Nc1cccc(Br)c1 (configuration not stated)	inactive: -2.2%
Cc1nc2ccc3ccccc3c2s1.O=[N+]([O-])c1cc([N+](=O)[O-])c(O)c([N+](=O)[O-])c1	inactive: -6.14%
O=[N+]([O-])c1cc([N+](=O)[O-])c(-c2cnn(-c3ccccc3)c2)c([N+](=O)[O-])c1	inactive: -8.84%
O=[N+]([O-])c1cc([N+](=O)[O-])c(-n2nnc3ccccc32)c([N+](=O)[O-])c1	inactive: -2.64%
CCCOc1ccc(NP(C)(=O)Oc2ccc(Cl)cc2)cc1 (configuration not stated)	inactive: -2.14%
CP(=O)(Nc1ccc(SC(F)(F)F)cc1)Oc1ccccc1 (configuration not stated)	inactive: -5.17%
COc1ccccc1OP(C)(=O)Nc1c(C)cccc1C (configuration not stated)	inactive: -3.96%
CN1CCCCC1COC(=O)C1(O)c2ccccc2CCc2ccccc21 (configuration not stated)	inactive: -0.155%
CCOC(=O)C(CC)C1=NC(C)(C)Cc2ccccc21.O=[N+]([O-])c1cc([N+](=O)[O-])c(O)c([N+](=O)[O-])c1 (configuration not stated)	inactive: -4.49%
CC1=C2N=C(C=C3N=C(C(C)=C4[N-][C@@](C)([C@@H]5N=C1[C@](C)(CCC(=O)NC[C@@H](C)OP(=O)([O-])O[C@H]1[C@@H](O)[C@@H](n6cnc7cc(C)c(C)cc76)O[C@@H]1CO)[C@H]5CC(N)=O)[C@@](C)(CC(N)=O)[C@@H]4CCC(N)=O)[C@@](C)(CC(N)=O)[C@@H]3CCC(N)=O)C(C)(C)[C@@H]2CCC(N)=O.[C-]#N.[Co+3]	inactive: 6.25%
O=[N+]([O-])c1cc([N+](=O)[O-])c(Nc2nnnn2CCO)c([N+](=O)[O-])c1	inactive: -4.53%
O=[N+]([O-])c1cc([N+](=O)[O-])c(NCC2CCS(=O)(=O)C2)c([N+](=O)[O-])c1 (configuration not stated)	inactive: -7.92%
COc1ccc(NP(C)(=O)Oc2ccccc2OC)cc1 (configuration not stated)	inactive: -9.35%
CN(C)CCOC(=O)C(O)(c1ccccc1)C1CCCCC1 (configuration not stated)	inactive: -2.41%

SMILES	inhibition
COc1ccc(OP(C)(=O)Nc2cccc(Br)c2)cc1 (configuration not stated)	inactive: 3.69%
Cc1ccccc1NP(C)(=O)Nc1ccccc1C	inactive: 3.45%
CP(=O)(Nc1ccc2c(c1)OCCO2)Oc1ccccc1 (configuration not stated)	inactive: -4.46%
CCOP(C)(=S)SCC(=O)NC(C)(CC)C(=O)O (configuration not stated)	inactive: -4.74%
CP(=O)(Nc1ccc(SC(F)(F)F)cc1)Oc1ccc(F)cc1 (configuration not stated)	inactive: -2.82%
COc1ccc2c(c1O)-c1c(O)c(OC)cc3c1[C@H](C2)[N+](C)(C)CC3.O=[N+]([O-])c1cc([N+](=O)[O-])c([O-])c([N+](=O)[O-])c1[O-]	inactive: -4.76%
O=C(OCCN1CCN(CCOCc2ccccc2)CC1)C(O)(c1ccccc1)c1ccccc1	inactive: -1.03%
O=C(OC1CN2CCC1CC2)c1ccc([N+](=O)[O-])cc1 (configuration not stated)	inactive: -4.26%
CC(C)c1ccc(OP(C)(=O)Nc2ccc(SC(F)(F)F)cc2)cc1 (configuration not stated)	inactive: -4.98%
CP(=O)(Nc1ccccc1F)Oc1ccccc1 (configuration not stated)	inactive: -2.25%
O=[N+]([O-])c1cc([N+](=O)[O-])c(OC2CCCCC2O)c([N+](=O)[O-])c1 (configuration not stated)	inactive: -4.84%
CCCCCOc1ccc(NP(C)(=O)Oc2ccc(Cl)cc2Cl)cc1 (configuration not stated)	inactive: -2.98%
CP(=O)(Nc1ccccc1)Oc1ccc(F)cc1 (configuration not stated)	inactive: -5.61%
CCN(CC)CCCOC(=O)C(O)(c1ccccc1)C1CCCCC1 (configuration not stated)	inactive: -1.78%
COc1ccc(OP(C)(=O)Nc2ccc(SC(F)(F)F)cc2)cc1 (configuration not stated)	inactive: -7.68%
CCOC(=O)c1ccc(NP(C)(=O)Oc2ccc(F)cc2)cc1 (configuration not stated)	inactive: -2.21%
CP(=O)(Nc1ccc(Cl)cc1Cl)Oc1ccccc1 (configuration not stated)	inactive: -2.66%
CP(=O)(OCCOc1ccccc1)OCCOc1ccccc1	inactive: -2.1%
Cc1nc2ccc3ccccc3c2o1.O=[N+]([O-])c1cc([N+](=O)[O-])c(O)c([N+](=O)[O-])c1	inactive: -1.75%
COc1ccc(OP(C)(=O)Nc2ccccc2Br)cc1 (configuration not stated)	inactive: -3.37%
COc1ccccc1OP(C)(=O)Nc1ccc(C)c(C)c1 (configuration not stated)	inactive: -4.67%
Cc1cc(C)cc(OP(C)(=O)Nc2cccc(C(F)(F)F)c2)c1 (configuration not stated)	inactive: -6.61%

SMILES	inhibition
CCc1ccc(OP(C)(=O)O)cc1	inactive: -4.92%
COc1ccccc1OP(C)(=O)Nc1ccc(C)cc1C (configuration not stated)	inactive: -0.043%
CP(=O)(Nc1ccccn1)Oc1ccccc1 (configuration not stated)	inactive: -1.55%
Cc1c(NP(C)(=O)Oc2ccc(C(C)C)cc2)c(=O)n(-c2ccccc2)n1C (configuration not stated)	inactive: -3.5%
O=[N+]([O-])c1cc([N+](=O)[O-])c(Nc2ccccn2)c([N+](=O)[O-])c1	inactive: -2.97%
CN(C)CCOC(=O)C(O)(c1ccccc1)C1CCCC1 (configuration not stated)	inactive: 2%
COc1ccc(OP(C)(=O)Nc2ccccn2)cc1 (configuration not stated)	inactive: -9.08%
COc1ccccc1OP(C)(=O)Nc1ccc(Br)cc1 (configuration not stated)	inactive: -5.81%
CN(C)C(=O)c1c([N+](=O)[O-])cc([N+](=O)[O-])cc1[N+](=O)[O-]	inactive: -5.02%
CP(=O)(Nc1ccc(Cl)cc1)Oc1ccc(F)cc1 (configuration not stated)	inactive: 5.4%
COc1ccccc1OP(C)(=O)Nc1ccccc1Br (configuration not stated)	inactive: -6.46%
CC(C)(C)c1ccc(OP(C)(=O)O)cc1	inactive: -0.755%
CCc1ccc(OP(C)(=O)Nc2cccnc2)cc1 (configuration not stated)	inactive: -2.85%
CP(=O)(Oc1ccccc1)N1CCOC1=O (configuration not stated)	inactive: -4.82%
O=C(OCCCN1CCCC1)C(O)(c1ccccc1)C1CCCCC1 (configuration not stated)	inactive: -4.59%
COc1ccccc1OP(C)(=O)Nc1c(C)n(C)n(-c2ccccc2)c1=O (configuration not stated)	inactive: 1.15%
COc1ccc(OP(C)(=O)Nc2ccc(Br)cc2)cc1 (configuration not stated)	inactive: -4.99%
CCN(CC)CC(O)COC(=O)C(O)(c1ccccc1)C1CCCCC1 (configuration not stated)	inactive: 0.052%
CP(=O)(OC12CC3CC(CC(C3)C1)C2)OC12CC3CC(CC(C3)C1)C2	inactive: 0.287%
CCOC(=O)c1ccc(NP(C)(=O)Oc2ccc(Cl)cc2)cc1 (configuration not stated)	inactive: -0.77%
Nc1ccc2c(ccc3cccnc32)n1.O=[N+]([O-])c1cc([N+](=O)[O-])c(O)c([N+](=O)[O-])c1	inactive: 3.43%
